## Measured affinities in a library of Ab-91 heavy chain variants

Binding partner: SARS-CoV-2 spike HR2 peptide, sequence PDVDLGDISGINAS.

The variants keep the light chain, the linker and the frameworks of Ab-91 (scFv order VL, a (GGGGS)3 linker, VH).
VL: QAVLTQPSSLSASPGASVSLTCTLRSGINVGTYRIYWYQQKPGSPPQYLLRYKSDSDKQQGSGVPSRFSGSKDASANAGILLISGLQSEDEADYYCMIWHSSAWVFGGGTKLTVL
VH: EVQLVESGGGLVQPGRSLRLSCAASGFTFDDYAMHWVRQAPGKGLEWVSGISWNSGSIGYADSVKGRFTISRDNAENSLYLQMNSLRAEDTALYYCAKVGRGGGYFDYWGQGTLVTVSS

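Phage display of a naive human antibody library on the peptide gave the parent. In library AAYL51, one, two or three CDR residues were substituted; doubles and triples were drawn at random. AlphaSeq pools MATa yeast showing the antibodies with MATalpha yeast showing the peptide. Pairs that bind mate more often; barcode pairs of the diploids are counted by sequencing. The ratio of observed to expected reads was calibrated, replicate by replicate, on BCL2-family standards whose Kd was known from biolayer interferometry. There are three technical replicates.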

Substitutions are numbered in sequence along the VH above, starting at 1 (not Kabat). Kd is apparent (estimated from mating counts) and averaged on the log scale over replicates with a signal. Smaller is tighter. "nd" means that the variant was in the library but no mating with the target was seen in any replicate; the authors take this as a sign of poor binding, and no number exists. Background: pairings of library AAYL51 with three empty control strains gave a value in 21% of cases (median 34 µM, 5th percentile 1.8 µM). Values in that range, when seen in few replicates, are hard to tell from nonspecific mating.

Result 370 nM (3 of 3 replicates), variant Y60S+R101P.
Result 6.4 µM (1 of 3 replicates), variant A33D+G104M.
Result nd (0 of 3 replicates), variant G59V+A61R+Y108I.
Result nd (0 of 3 replicates), variant D30T+S52K+Y105L.
Result 8.3 µM (1 of 3 replicates), variant M34Q+D62W+Y108P.
Result nd (0 of 3 replicates), variant G26D+D31I+F106Q.
Result nd (0 of 3 replicates), variant Y32S+D62Y+G103M.
Result 31 µM (1 of 3 replicates), variant H35V+V64E+G100Q.
Result 8.9 µM (1 of 3 replicates), variant G59T+K65M+V99L.
Result nd (0 of 3 replicates), variant Y32R+S52I+S57F.
Result 110 µM (2 of 3 replicates), variant T28G+V99Y+G102T.
Result 26 µM (1 of 3 replicates), variant M34A+G59E+G102E.
Result nd (0 of 3 replicates), variant T28V+Y32P+G59S.
Result nd (0 of 3 replicates), variant S52V+K65F+G103S.
Result 110 µM (1 of 3 replicates), variant F27H+A33I+F106W.
Result 1.2 mM (1 of 3 replicates), variant G26D+N54Q+S63P.
Result nd (0 of 3 replicates), variant G26P+G50W+I58L.
Result 92 µM (1 of 3 replicates), variant T28V+H35S+K65L.
Result nd (0 of 3 replicates), variant D31F+G50F+Y105M.
Result 170 µM (1 of 3 replicates), variant S57G+G100S+G103D.
Result nd (0 of 3 replicates), variant I51A+S55T+V99W.
Result nd (0 of 3 replicates), variant F27G+Y32Q+S55V.
Result nd (0 of 3 replicates), variant F29L+S52I+G103W.
Result nd (0 of 3 replicates), variant D30C+S55H+G100Q.
Result 89 µM (3 of 3 replicates), variant D30T+H35A+R101P.
Result 2.4 µM (1 of 3 replicates), variant S55Q+A61G+S63N.
Result 23 nM (3 of 3 replicates), variant M34G+G56D+I58L.
Result nd (0 of 3 replicates), variant F29W+W53G+G102L.
Result 70 µM (2 of 3 replicates), variant F29W+D30V+G103V.
Result nd (0 of 3 replicates), variant D31Y+Y60M+Y108G.
Result 120 µM (2 of 3 replicates), variant S52L+G59A+Y60C.
Result 100 µM (1 of 3 replicates), variant G26H+G100Q+G104P.
Result nd (0 of 3 replicates), variant G50F+S55T+G102S.
Result 150 µM (3 of 3 replicates), variant S55W+K65M.
Result nd (0 of 3 replicates), variant F29V+G59F+Y60I.
Result 84 nM (3 of 3 replicates), variant D31Y+W53V+Y108P.
Result 60 µM (1 of 3 replicates), variant T28Y+I51S+Y60C.
Result 67 µM (2 of 3 replicates), variant F29A+S55Q+G104C.

2 of these entries, quoted again:

changes	Kd (apparent)	replicates with signal
M34A+G59E+G102E	26 µM	1 of 3
T28Y+I51S+Y60C	60 µM	1 of 3

Data: MIT Lincoln Laboratory AlphaSeq set, Engelhart et al. 2022, doi:10.1038/s41597-022-01779-4, as distributed in FLAb.